# Laboratory results as given in publication PMC9246256, “Structure-based optimization of type III indoleamine 2,3-dioxygenase 1 (IDO1) inhibitors” (Journal of Enzyme Inhibition and Medicinal Chemistry, 2022).
# Sequences of proteins named here, by UniProt entry; tags and fusion partners are left off.
# UniProt P14902, whole entry: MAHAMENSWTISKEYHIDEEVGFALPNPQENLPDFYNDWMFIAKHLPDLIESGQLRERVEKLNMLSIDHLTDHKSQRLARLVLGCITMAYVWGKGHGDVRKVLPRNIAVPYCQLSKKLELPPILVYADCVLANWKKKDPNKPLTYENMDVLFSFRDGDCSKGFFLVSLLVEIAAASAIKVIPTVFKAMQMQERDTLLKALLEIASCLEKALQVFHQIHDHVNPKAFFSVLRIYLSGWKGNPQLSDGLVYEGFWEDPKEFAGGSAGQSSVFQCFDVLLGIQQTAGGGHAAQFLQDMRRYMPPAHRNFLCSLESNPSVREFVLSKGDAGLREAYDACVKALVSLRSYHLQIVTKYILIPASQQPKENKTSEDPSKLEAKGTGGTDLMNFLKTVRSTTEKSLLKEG
# Legend:
# HEK 293 T cells = details: previously determined; 200 µM; ref 1 of Supporting Information (Röhrig et al. 2021); cited from earlier work
# hIDO1 = hIDO1 (Homo sapiens, UniProt P14902); details: previously determined, ref 1 of Supporting Information (Röhrig et al. 2021), cited from earlier work
# [1] = molecular target: purified recombinant IDO1 (Homo sapiens, UniProt P14902); assay: Enzymatic IDO1 inhibition assay (ascorbate/methylene blue reduction system, HPLC detection of kynurenine); type: biochemical; details: ligand efficiency, LE = -RT log(IC50)/number of heavy atoms, from enzymatic IC50
Structure (SMILES),Tox. [%] (HEK 293 T cells),Inh. [%] (hIDO1; 200 µM),IC50 (hIDO1; read-out: IC50 [µM] (cellular)),LE [kcal/mol/HA] [1] [kcal/mol/HA]
Nc1ccc(Cl)cc1-c1cn[nH]n1,26,100,23,0.61
Cc1ccc(Cl)cc1-c1cn[nH]n1,–,–,–,0.56
